Results on one compound are retold here after patent publication US8791092B2 (priority 2009, dated 2014).

The subject of the assay is mouse overexpressing PS1(M146V), APP(Swe), and tau(P301L). The assay can be described thus: Y-maze spatial memory in triple transgenic mouse model of AD. Conditions: miniosmotic pumps, 4 weeks, nine-month old mice.

With `O=P(O)(O)Oc1c2c(c(OP(=O)(O)O)c3c1C1C[C@H]3c3cc4c(cc31)C1C[C@H]4c3ccccc31)[C@@H]1CC2c2cc3c(cc21)[C@@H]1CC3c2ccccc21` [TW1], the “improvement in percent alternations (Y-maze)” value (500 μM TW1 subcutaneously) is 21% and the “improvement in percent alternations (Y-maze)” value (1 mM TW1 subcutaneously) stood at 16%.
